Results published in EP4821917A1, “PROLIFERATING CELL NUCLEAR ANTIGEN INHIBITOR, AND PREPARATION METHOD THEREFOR, INTERMEDIATE THEREOF, PHARMACEUTICAL COMPOSITION THEREOF AND USE THEREOF” (dated 2026).

Columns and labels:
NCI-H522 = assay: Antitumor activity assay (CellTiter-Glo), NCI-H522; conditions: for pIC50: Table 4, NCI-H522, Max. Concentration 10 µM, 48 h, CTG; for antitumor activity (NCI-H522) relative to AOH-1996: comparison in words
Experimental: (§1) Table 2 Cell Culture Conditions
(§2) • a) The cell cryopreservation tube was taken out from liquid nitrogen and placed in a water bath at 37°C for rapid thawing. After the surface of the cryopreservation tube was wiped with 75% ethanol, the cryopreservation tube was transferred into a biosafety cabinet. • b) The cryopreserved cells were transferred into a 15-mL sterile centrifuge tube. Culture medium in a volume 10 times that of the cryopreservation solution was added, and centrifuged at 1,200 rpm for 5 min. • c) The culture medium in the centrifuge tube was discarded. An appropriate volume of fresh culture medium (Table 2) was added. The cells were re-suspended, transferred into a culture flask and cultured in a cell culture incubator at 37°C. The culture medium was replaced the next day.
(§3) • a) For adherent cells at the logarithmic growth phase, the culture medium was discarded. The cells were washed with 8 mL of PBS two times, and the PBS was discarded. • b) 5 mL of a dissociation solution containing 0.25% trypsin was added, and the cells were incubated at 37°C for 3 to 5 min. […] The cells were gently pipetted to detach them from the culture surface, thereby obtaining a cell suspension for subsequent passaging and experimentation.
(§4) • a) The cells were harvested directly and collected by centrifugation.
(§5) • a) Preparation of cell suspension • i. the culture medium was removed from the culture flask; • ii. the cells were rinsed with PBS two times; • iii. trypsin was added to dissociate the cells, and after the dissociation was terminated by adding culture medium, the cells were collected by centrifugation; the suspension cells were collected directly; • iv. the cells were re-suspended in culture medium, counted and adjusted to an appropriate concentration. • b) The cell suspension was added to a 384-well plate at a volume of 40 µL per well. The number of cells per well was shown in Table 2. • c) The cells were incubated at 37°C in a 5% CO2 incubator for 48 h.
(§6) • a) Preparation of gradient dilution solutions of positive compounds and test compounds: A 10 mM stock solution of each compound was prepared using DMSO. Subsequently, a 3-fold serial gradient dilution was carried out with DMSO to generate a total of 10 concentration points for each compound.
(§7) • a) 40 nL of compound was transferred using an Echo550 system. The cell suspension was added to the cell culture plate at a volume of 40 µL per well. • b) The cells were transferred to an incubator and incubated for 48 h.
(§8) • a) The cell culture plate was removed and allowed to equilibrate at room temperature for 30 min. • b) The working solution for the CTG assay was prepared according to the instructions of the Promega kit and equilibrated to 25°C in an incubator. • c) 30 µL of CellTiter-Glo was transferred to each well of the cell culture plate. After incubation at room temperature for 15 min, the chemiluminescence was read using Ensight.
(§9) The inhibition ratio (% inhibition) was calculated using the following formula: %Inhibition = 100%−100% × (LumSample −LumLC)/(LumHC −LumLC) [formula] • LumHC: reading of cells in the control group treated with 1‰ DMSO • LumSample: reading of cells treated with compound • LumLC: reading of cells in blank culture medium
(§10) The IC50 was calculated using XLfit (5.3.1.3) by fitting the data to formula 201: y = (A+((B-A)/(1+((x/C)^D)))) • A: Bottom • B: Top • C: IC50 (Rel IC50) • D: Hill Slope Table 3 Inhibitory Activity of Compounds Against HL-60

HL-60 = assay: Antitumor activity assay (CellTiter-Glo), HL-60; conditions: for pIC50: HL-60; for higher inhibitory activity against HL-60 as compared to Comparative Compound 2 (AOH-1996): fold relative to AOH-1996; for antitumor activity (HL-60) relative to the corresponding compounds 44 and 93: comparison in words
Experimental: as §1, §2, §3, §4, §5, §6, §7, §8, §9, §10

[1] = tested on: Human renal cancer (786-O); assay: Broad-spectrum antitumor activity assay, 786-O; conditions: Table 5
Experimental: as §2, §3, §4, §5
• a) Preparation of gradient dilution solutions of positive compounds and test compounds: A 10 mM stock solution of each compound was prepared using DMSO. […]
as §8, with “Ensight. […]” for “Ensight.”
(§11) The IC50 was calculated using XLfit (5.3.1.3) by fitting the data to formula 201: y = (A+((B-A)/(1+((x/C)^D)))) • A: Bottom • B: Top • C: IC50 (Rel IC50) • D: Hill Slope Table 3 Inhibitory Activity of Compounds Against HL-60 […]

[2] = tested on: Human breast cancer (MCF7); assay: Broad-spectrum antitumor activity assay, MCF7; conditions: Table 5
Experimental: as §2, §3, §4, §5, §6, §7, §8, §9, §11

[3] = Pharmacokinetic study, single gavage to mice; conditions: for Cmax and half-life as compared to compound AOH-1996: comparison in words; for biological stability: conclusion from the pharmacokinetic results (Table 6), relative to AOH-1996; for AUC 0-last / Cmax / T1/2: CB-17 SCID (B-Ces1c KO) mice, plasma, dose not given
Experimental: Pharmacokinetic studies on administration of comparative compound 2 (AOH-1996), compound 100 (MTB-2006) and compound 99 via single gavage to female CB-17 SCID (B-Ces1c KO) mice
Prior to the first administration, animals were grouped based on body weight. The animals were weighed before administration, and the dosing volume was calculated based on the body weight.
After each formulation was prepared, two aliquots of the clear dosing solution (top and bottom layers) or three aliquots of the suspension (top, middle, and bottom layers) were collected. The formulation was analyzed by HPLC-UV to evaluate the accuracy of the formulation concentration.
Plasma samples were collected at 0.167, 0.333, 0.5, 1, 2, 4, 6, and 12 h after administration.
Whole blood collection and preparation of plasma samples: Whole blood was collected from the saphenous vein of each animal (approximately 0.02 mL per time point) into pre-cooled commercial blood collection tubes (containing EDTA-K2 as an anticoagulant) at each time point. Within 10 seconds after collection of the whole blood, a stabilizer was added at a ratio of whole blood to 400 mM DDV (19:1, v:v). The samples were placed on wet ice till centrifugation. Blood samples collected at each time were kept on wet ice prior to centrifugation, and centrifuged at approximately 4°C and 3,200 g for 10 min to prepare plasma samples. Subsequently, the plasma samples were transferred to low-adsorption tubes, flash-frozen on dry ice, and stored at a temperature of -60°C or lower till LC-MS/MS. The sample processing was carried out under wet ice conditions.
The concentration of the formulation for administration was determined by the HPLC-UV method. The calibration curve consisted of at least six concentration levels. Each sample was analyzed in duplicate. The measured concentration should fall within 80% to 120% of the theoretical formulation concentration; otherwise, the pharmacokinetic parameters should be calculated based on the actual dose.
Under non-GLP conditions, an LC-MS/MS method for the quantitative determination of the test compounds in biological matrices was established. Table 6. Pharmacokinetic Data of AOH-1996, Compound 99, and MTB-2006

[4] = tested on: Human peripheral blood mononuclear cell (Human PBMC); assay: Cytotoxicity toward normal cells, Human PBMC; conditions: for pIC50: Table 5, normal Human PBMC, highest test concentration 10 µM; for cytotoxicity toward normal human peripheral blood mononuclear cells (PBMCs): at the highest test concentration of 10 µM
Experimental: as §2, §3, §4, §5, §6, §7, §8, §9, §10
(§12) According to the test methods described above, the antitumor activities of the test compounds and AOH-1996 in various tumor cell lines were tested (Table 5).

[5] = tested on: all test tumor cell lines; assay: Broad-spectrum antitumor activity assay, summary over all cell lines; conditions: comparison in words
Experimental: as §12

[6] = tested on: Human ovarian cancer (OVCAR-3); assay: Broad-spectrum antitumor activity assay, OVCAR-3; conditions: Table 5
Experimental: as §2, §3, §4, §5, §6, §7, §8, §9, §11

[7] = tested on: Human prostate cancer (PC-3); assay: Broad-spectrum antitumor activity assay, PC-3; conditions: Table 5
Experimental: as §2
(§13) • a) For adherent cells at the logarithmic growth phase, the culture medium was discarded. The cells were washed with 8 mL of PBS two times, and the PBS was discarded. • b) 5 mL of a dissociation solution containing 0.25% trypsin was added, and the cells were incubated at 37°C for 3 to 5 min. […]
as §5, with “The number of cells per well was shown in Table 2. • c) The cells were incubated at 37°C in a 5% CO2 incubator for 48 h.” left out
as §8, with “Ensight. […]” for “Ensight.”

Human glioma (U-251) = assay: Broad-spectrum antitumor activity assay, U-251; conditions: Table 5
Experimental: as §2, with “The cells were re-suspended, transferred into a culture flask and cultured in a cell culture incubator at 37°C. The culture medium was replaced the next day.” left out
as §5, with “The number of cells per well was shown in Table 2. • c) The cells were incubated at 37°C in a 5% CO2 incubator for 48 h.” left out
as §11

[8] = tested on: Non-small cell lung cancer (A-549); assay: Broad-spectrum antitumor activity assay, A-549; conditions: Table 5
Experimental: as §2, §13
as §5, with “The number of cells per well was shown in Table 2. • c) The cells were incubated at 37°C in a 5% CO2 incubator for 48 h.” left out
as §8, with “Ensight. […]” for “Ensight.”

colon cancer (HCT-116) = assay: Broad-spectrum antitumor activity assay, HCT-116; conditions: Table 5
Experimental: as §2, with “The cells were re-suspended, transferred into a culture flask and cultured in a cell culture incubator at 37°C. The culture medium was replaced the next day.” left out
as §5, with “The number of cells per well was shown in Table 2. • c) The cells were incubated at 37°C in a 5% CO2 incubator for 48 h.” left out
as §11

[9] = Table 3, Max. Concentration 10 µM, 48 h, CTG

pIC50 (HL-60; [9]) | pIC50 [1] | pIC50 [2] | pIC50 (HL-60; Table 5 (broad-spectrum assay)) | pIC50 [6] | Compound | higher inhibitory activity against HL-60 as compared to Comparative Compound 2 (AOH-1996) (HL-60) | pIC50 [4] | cytotoxicity toward normal human peripheral blood mononuclear cells (PBMCs) [4] | also measured
6.68 |  |  |  |  | O=C(CNC(=O)c1cccc2ccccc12)Nc1ccccc1Oc1ccc2c(c1)CCO2 | three times higher |  |  | pIC50 (NCI-H522): 6.87; antitumor activity (NCI-H522) relative to AOH-1996 (NCI-H522): significantly enhanced; higher inhibitory activity against HL-60 as compared to Comparative Compound 2 (AOH-1996) (HL-60; listed as MTB-1956): three folds higher
7.20 | 7.11 | 7.09 | 7.10 | 7.06 | [2H]C([2H])([2H])c1cc2c(cc1Oc1cc(F)ccc1NC(=O)CNC(=O)c1cccc3ccccc13)CCO2 |  | < 5.00 | no significant cytotoxicity | Cmax and half-life as compared to compound AOH-1996 [3]: significantly improved; biological stability [3]: better biological stability; AUC 0-last ([3]; single gavage): 457 ng·h/mL; Cmax ([3]; single gavage): 98.5 ng/mL; T1/2 ([3]; single gavage): 3.73 h; drug exposure relative to AOH-1996 ([3]; single gavage, mice): approximately three times; increase of drug exposure as compared to compound 99 ([3]; single gavage, mice): 32.5%; antitumor activity relative to compound 93 (MTB-1993) [5]: comparable; antitumor activity (HL-60) relative to the corresponding compounds 44 and 93 (HL-60): comparable
6.28 |  |  |  |  | Cn1ccc2ccc(Oc3ccccc3NC(=O)CNC(=O)c3cccc4ccccc34)cc21 |  |  |  | 
7.19 | 7.10 | 7.10 | 7.09 | 7.05 | Cc1cc2c(cc1Oc1cc(F)ccc1NC(=O)CNC(=O)c1cccc3ccccc13)CCO2 |  | < 5.00 | no significant cytotoxicity | Cmax and half-life as compared to compound AOH-1996 [3]: significantly improved; biological stability [3]: better biological stability; AUC 0-last ([3]; single gavage): 345 ng·h/mL; Cmax ([3]; single gavage): 68.6 ng/mL; T1/2 ([3]; single gavage): 3.21 h; antitumor activity (HL-60) relative to the corresponding compounds 44 and 93 (HL-60): comparable
6.24 |  |  |  |  | Cn1cnc2ccc(Oc3ccccc3NC(=O)CNC(=O)c3cccc4ccccc34)cc21 |  |  |  | 
7.17 |  |  |  |  | Cc1cc2c(cc1Sc1ccccc1NC(=O)CNC(=O)c1cccc3ccccc13)CCO2 | approximately nine times higher |  |  | 
7.20 | 7.20 | 7.14 | 7.19 | 7.10 | [2H]C([2H])([2H])c1cc2c(cc1Oc1ccccc1NC(=O)CNC(=O)c1cccc3ccccc13)CCO2 | approximately nine times higher | < 5.00 | no significant cytotoxicity | pIC50 [7]: 7.17; pIC50 (Human glioma (U-251)): 7.22; pIC50 [8]: 7.14; pIC50 (colon cancer (HCT-116)): 7.69
5.16 |  |  |  |  | O=C(CNC(=O)c1cccc2ccccc12)Nc1ccccc1Oc1ccc2scnc2c1 |  |  |  | pIC50 (NCI-H522): 5.69; antitumor activity (NCI-H522) relative to AOH-1996 (NCI-H522): lower activity
7.17 | 7.20 | 7.04 | 7.20 | 6.81 | Cc1cc2c(cc1Oc1ccccc1NC(=O)CNC(=O)c1cccc3ccccc13)CCO2 | approximately nine times higher | < 5.00 | no significant cytotoxicity | pIC50 [7]: 7.10; pIC50 (Human glioma (U-251)): 7.18; pIC50 [8]: 6.95; pIC50 (colon cancer (HCT-116)): 7.59
6.20 |  | 6.33 | 6.41 | 6.27 | COc1cccc(Oc2ccccc2NC(=O)CNC(=O)c2cccc3ccccc23)c1 |  | < 5.00 |  | pIC50 (NCI-H522): 6.63; pIC50 [7]: 6.45; AUC 0-last ([3]; single gavage): 162 ng·h/mL; Cmax ([3]; single gavage): 54.3 ng/mL; T1/2 ([3]; single gavage): 2.99 h; pIC50 [8]: 6.14
6.31 |  |  |  |  | O=C(CNC(=O)c1cccc2ccccc12)Nc1ccccc1Oc1ccc2c(c1)OCO2 |  |  |  | 
6.23 |  |  |  |  | Cn1ccc2cc(Oc3ccccc3NC(=O)CNC(=O)c3cccc4ccccc34)ccc21 |  |  |  | 

pIC50: −log10 of the molar value.
